# Measurements published in patent USRE46630E1, “Substituted 4-pyridones and their use as inhibitors of neutrophil elastase activity” (Boehringer Ingelheim International GmbH, priority 2012, dated 2017).
# Protein sequences, listed by entry. Tags and fused reporters are not part of them. Residues count along the entry.
# UniProt P08246, 30-267 limits assumed: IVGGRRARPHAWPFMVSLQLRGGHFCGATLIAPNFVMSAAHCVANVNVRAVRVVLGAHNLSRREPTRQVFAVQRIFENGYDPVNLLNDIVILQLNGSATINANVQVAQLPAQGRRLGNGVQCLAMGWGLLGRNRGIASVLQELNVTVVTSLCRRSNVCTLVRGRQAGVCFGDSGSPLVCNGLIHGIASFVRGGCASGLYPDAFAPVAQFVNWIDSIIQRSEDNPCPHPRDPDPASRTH
# Biological target: Human neutrophil elastase (Homo sapiens, UniProt P08246)
# Assay: Human Neutrophil Elastase Assay
# Assay type: biochemical
# Conditions: Neutrophil Elastase assay; substrate MeOSuc-Ala-Ala-Pro-Val-AMC 250 μM; 15 min preincubation, 60 min incubation at room temperature; pH 7.5
row,SMILES,pIC50
1,CNC(=O)c1cn(Cc2ccc(C#N)cn2)c(C)c(-c2cccc(C(F)(F)F)c2)c1=O,7.59
2,Cc1c(-c2cccc(C(F)(F)F)c2)c(=O)c(C(=O)NCc2ccc(S(C)(=O)=O)cc2)cn1C(C)c1ccc(C#N)cc1 (centres unmarked),> 9.00
3,Cc1c(-c2cccc(C(F)(F)F)c2)c(=O)c(C(=O)NCc2ccc(S(C)(=O)=O)cc2)cn1[C@@H](C)c1ccc(C#N)cc1,7.70
4,Cc1c(-c2cccc(C(F)(F)F)c2)c(=O)c(C(=O)NCc2ccc(S(C)(=O)=O)cn2)cn1Cc1ccc(F)cc1,8.82
5,"CNC(=O)c1cn(C(C)c2ccc(C#N)cc2)c(C)c(-c2cccc(CF)c2)c1=O (single isomer, unassigned)",5.72
6,"CNC(=O)c1cn(C(C)c2ccc(C#N)cc2)c(C)c(-c2cccc(C(F)(F)F)c2)c1=O (single isomer, unassigned) [Example 3.1A]",> 9.00
7,"CNC(=O)c1cn(C(C)c2ccc(C#N)cc2)c(C)c(-c2cccc(C(F)(F)F)c2)c1=O (single isomer, unassigned) [Example 3.1B]",6.65
8,"CNC(=O)c1cn(C(C)c2ccc(C#N)cc2)c(C)c(-c2cccc(C(F)(F)F)c2)c1=O (single isomer, unassigned) [Example 3.1]",8.54
9,"Cc1noc(CNC(=O)c2cn(C(C)c3ccc(C#N)cc3)c(C)c(-c3ccnc(C(F)(F)F)c3)c2=O)n1 (single isomer, unassigned) [Example 9.5A]",8.55
10,"Cc1noc(CNC(=O)c2cn(C(C)c3ccc(C#N)cc3)c(C)c(-c3ccnc(C(F)(F)F)c3)c2=O)n1 (single isomer, unassigned) [Example 9.5B]",6.06
11,"CCNC(=O)c1cn(C(C)c2ccc(C#N)cc2)c(C)c(-c2ccnc(C(F)(F)F)c2)c1=O (single isomer, unassigned) [Example 9.56A]",8.64
12,"CCNC(=O)c1cn(C(C)c2ccc(C#N)cc2)c(C)c(-c2ccnc(C(F)(F)F)c2)c1=O (single isomer, unassigned) [Example 9.56B]",5.89
13,"CNC(=O)c1cn(C(C)c2ccc(C#N)cn2)c(C)c(-c2cccc(C(F)(F)F)c2)c1=O (single isomer, unassigned) [Example 15A]",8.42

# Same assay, conditions: eutomer versus distomer of the racemic example
row,SMILES,"neutrophil elastase inhibitory potency, one enantiomer compared with the other"
1,Cc1c(-c2cccc(C(F)(F)F)c2)c(=O)c(C(=O)NCc2ccc(S(C)(=O)=O)cc2)cn1[C@@H](C)c1ccc(C#N)cc1,distomer

# pIC50: −log10 of the molar value.
